The values below are quoted from earlier work in publication PMC11372839, “Unraveling the Potential of Vitamin B3-Derived Salts with a Salicylate Anion as Dermal Active Agents for Acne Treatment” (Molecular Pharmaceutics, 2024).

Molecules are shown by their SMILES.

Details of the data set: method as in doi:10.1080/10826076.2015.1057642, PMID 22469554, PMID 31982561. The following applies: frequently used topical acne agents; cited from earlier work.

`CCC[C@@H]1C[C@@H](C(=O)N[C@@H]([C@H]2O[C@H](SC)[C@H](O)[C@@H](O)[C@H]2O)[C@H](C)Cl)N(C)C1` [clindamycin]: the “log KOW” value is 1.60.
